Here are results for one compound from PMC5454392, “Selective BET bromodomain inhibition as an antifungal therapeutic strategy” (Nature Communications, 2017).

Sequences of proteins named here, by UniProt entry; tags and fusion partners are left off. Residues count along the entry.
UniProt P51532, 1453-1564 limits assumed: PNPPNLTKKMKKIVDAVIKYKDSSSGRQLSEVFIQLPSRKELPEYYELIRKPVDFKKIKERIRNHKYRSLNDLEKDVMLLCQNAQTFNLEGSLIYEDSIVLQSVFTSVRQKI

SMILES strings stand for the structures.

As usually defined, the inhibition is the share of the control response that was lost under treatment.

In this test the target is SMARCA4 BD (Homo sapiens, UniProt P51532). Kind of test: biochemical. The settings on record: read-out: inhibition in BROMOscan. As to the method: The liganded beads were blocked with excess biotin and washed with blocking buffer (SeaBlock (Pierce), 1% BSA, 0.05% Tween 20, 1 mM DTT) to remove unbound ligand and to reduce non-specific phage binding.

Turning to `O=C1c2ccccc2Sc2cc(-c3noc(-c4cnccn4)n3)ccc2N1C1CC1` [Compound 1], the inhibition at 10 µM is roughly 65%.
